Laboratory results: paper PMC3692398 (Biochemical pharmacology, 2013)

By UniProt entry, the sequences of proteins in these tests, tags left out. Residues count along the entry.
UniProt P28223, whole entry: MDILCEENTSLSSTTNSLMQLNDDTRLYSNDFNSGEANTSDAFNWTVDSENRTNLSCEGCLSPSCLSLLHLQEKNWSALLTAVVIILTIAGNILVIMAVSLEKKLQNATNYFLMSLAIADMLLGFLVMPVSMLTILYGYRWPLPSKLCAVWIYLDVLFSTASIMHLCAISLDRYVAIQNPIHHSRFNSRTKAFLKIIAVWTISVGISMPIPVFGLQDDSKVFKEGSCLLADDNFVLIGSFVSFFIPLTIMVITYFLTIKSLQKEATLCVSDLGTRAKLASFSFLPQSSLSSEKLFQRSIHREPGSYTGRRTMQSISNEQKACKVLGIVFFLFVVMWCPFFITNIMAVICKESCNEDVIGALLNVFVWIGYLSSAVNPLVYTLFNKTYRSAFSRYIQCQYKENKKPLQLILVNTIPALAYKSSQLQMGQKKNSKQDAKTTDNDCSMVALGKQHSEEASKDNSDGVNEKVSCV
UniProt P28335, 33-458: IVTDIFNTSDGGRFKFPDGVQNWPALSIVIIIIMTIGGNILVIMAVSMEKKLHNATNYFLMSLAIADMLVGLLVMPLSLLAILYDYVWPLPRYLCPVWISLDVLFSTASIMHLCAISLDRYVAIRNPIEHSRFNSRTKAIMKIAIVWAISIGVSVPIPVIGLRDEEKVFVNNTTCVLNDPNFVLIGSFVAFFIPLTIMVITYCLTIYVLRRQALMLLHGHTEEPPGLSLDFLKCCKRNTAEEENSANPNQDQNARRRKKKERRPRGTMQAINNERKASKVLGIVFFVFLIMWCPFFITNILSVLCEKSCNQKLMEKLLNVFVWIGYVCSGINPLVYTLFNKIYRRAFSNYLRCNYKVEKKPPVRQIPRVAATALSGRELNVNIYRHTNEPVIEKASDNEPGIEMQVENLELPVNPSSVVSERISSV

Key:
h5-HT2A receptor [1] = target: T1, h5-HT2A receptor (Homo sapiens, UniProt P28223); assay: cell-based
h5-HT2A receptor [2] = target: T1, h5-HT2A receptor; assay: [125I]DOI binding, HEK-h5-HT2A
h5-HT2C receptor = h5-HT2C receptor (Homo sapiens, UniProt P28335); settings: read-out: Inhibition of radioligand binding Ki ± sem, h5-HT2C [125I]DOI

## CNC(C)C(=O)c1ccc(C)cc1 (stereo not drawn) [Mephedrone, 4-methyl-N-methylcathinone]
h5-HT2A receptor [1]
  IC50: 14.8 ± 1.8 µM
h5-HT2A receptor [2]
  Ki: 9 ± 1.5 µM

## CNC(C)Cc1ccc2c(c1)OCO2 (stereo not drawn) [MDMA, 3,4-methylenedioxymethylamphetamine, reference compound]
h5-HT2C receptor
  Ki: 1.36 µM
